Values quoted from earlier work in PMC2957478 (Bioorganic & medicinal chemistry letters, 2009).

Amino acid sequences for entries named in this document (tags omitted). Residues count along the entry.
UniProt P05121, 24-402, species assumed: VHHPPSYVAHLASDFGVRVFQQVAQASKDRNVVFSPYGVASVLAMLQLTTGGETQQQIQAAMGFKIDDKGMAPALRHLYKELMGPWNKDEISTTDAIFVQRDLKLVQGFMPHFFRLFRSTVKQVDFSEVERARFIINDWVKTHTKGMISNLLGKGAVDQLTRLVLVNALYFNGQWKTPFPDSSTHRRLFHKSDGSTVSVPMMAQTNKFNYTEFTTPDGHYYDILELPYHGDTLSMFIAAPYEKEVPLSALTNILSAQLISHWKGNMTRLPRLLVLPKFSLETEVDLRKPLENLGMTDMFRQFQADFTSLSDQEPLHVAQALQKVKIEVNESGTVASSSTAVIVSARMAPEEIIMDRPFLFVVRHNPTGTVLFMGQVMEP

Molecular target: PAI-1 (Homo sapiens, UniProt P05121)
Conditions: cited from earlier work

Compound: O=C(O)C(=O)c1cn(Cc2ccccc2)c2ccc(-c3ccc(OC(F)(F)F)cc3)cc12 [tiplaxtinin]
- reported IC50 against PAI-1 (in words): low micromolar range
- IC50 (read-out: PAI-1 IC50 of tiplaxtinin): 9.7 µM
